## scFv variants of Ab-91 (heavy chain) against a SARS-CoV-2 spike peptide

Binding partner: SARS-CoV-2 spike HR2 peptide, sequence PDVDLGDISGINAS.

Parent: Ab-91, a human scFv built as VL, a 15-residue (Gly4Ser)3 linker, VH. Only the CDRs of the heavy chain vary.
VL: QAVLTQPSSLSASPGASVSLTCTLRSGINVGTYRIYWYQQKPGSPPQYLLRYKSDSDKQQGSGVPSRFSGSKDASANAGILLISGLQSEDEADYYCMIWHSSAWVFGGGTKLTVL
VH: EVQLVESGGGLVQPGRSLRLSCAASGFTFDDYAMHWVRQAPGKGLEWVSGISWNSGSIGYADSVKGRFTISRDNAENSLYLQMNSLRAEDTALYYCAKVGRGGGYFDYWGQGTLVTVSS

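Phage display of a naive human antibody library on the peptide gave the parent. Variants in AAYL51 differ from the parent at up to three CDR positions; double and triple changes were sampled at random. Affinity was read by AlphaSeq, a pooled yeast mating assay with surface-displayed partners. Mating (16 h, 30 °C) was followed by selection of diploids and sequencing of their barcodes. Scores were corrected for input abundance and mapped to Kd with protein pairs of known affinity run in the same pool. Mating was done three times.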

Positions count from residue 1 of the parent VH; D31S puts S in place of D. Numbers give log10(Kd / nM), so 0 is 1 nM and 3 is 1 µM. Smaller is tighter. "nd" means that the variant was in the library but no mating with the target was seen in that replicate; the authors take this as a sign of poor binding, and no number exists. As a blank, each scFv also met three strains without target: over library AAYL51, 21% of these pairings were detected, typically at 4.54 and seldom below 3.26. For each scFv, signals with the empty controls are counted beside the result.

The variant D31S G56W R101Q showed nd, nd, nd (controls 1 of 9).
The variant A61E D62E V99M showed 4.31, 6.07, 5.32 (controls 6 of 9).
The variant N54E G59I V64L showed nd, nd, nd (controls 0 of 9).
The variant A33C G102K F106N showed 4.21, 3.79, nd (controls 3 of 9).
The variant I51N N54S showed 2.89, nd, nd (controls 2 of 9).
The variant D31A S55F V99I showed 3.09, 3.74, 3.31 (controls 4 of 9).
The variant D31R M34L G100C showed 2.74, 3.04, 2.36 (controls 2 of 9).
The variant A33G G56H S63N showed 0.42, 0.30, -0.18 (controls 1 of 9).
The variant G59M D62W G100Q showed nd, nd, 4.50 (controls 2 of 9).
The variant D31W S57D showed 0.31, 0.23, -0.45 (controls 9 of 9).
The variant S57V G59H F106N showed 4.91, 4.79, 5.25 (controls 5 of 9).
The variant D30A I58H G102M showed 3.56, 3.95, 2.77 (controls 0 of 9).
The variant S55N G102E D107S showed 5.08, 4.38, 4.61 (controls 4 of 9).
The variant D30E S57R F106S showed nd, nd, 4.37 (controls 2 of 9).
The variant N54D G56S A61Y showed nd, nd, nd (controls 0 of 9).
The variant I51E I58V A61S showed 4.53, 5.98, nd (controls 3 of 9).
The variant G50L V64D K65G showed nd, nd, nd (controls 1 of 9).
The variant F29W A33R G59I showed nd, nd, nd (controls 2 of 9).
The variant G50M S52Y G103Y showed nd, nd, nd (controls 0 of 9).
The variant D31Q Y32C G104W showed nd, 4.12, nd (controls 4 of 9).
The variant M34K S63W G102K showed 4.93, nd, nd (controls 0 of 9).
The variant A33E W53P F106P showed 2.84, nd, nd (controls 0 of 9).
The variant F29H Y32I A61N showed nd, nd, 4.17 (controls 1 of 9).
The variant G26M T28A showed nd, nd, nd (controls 0 of 9).
The variant N54L K65M G103A showed nd, nd, nd (controls 0 of 9).
The variant H35C I58D G103Y showed 4.90, nd, nd (controls 1 of 9).
The variant G26C D30F Y60W showed nd, nd, nd (controls 1 of 9).
The variant N54Q S55H G100E showed nd, 5.70, nd (controls 3 of 9).
The variant M34I I51N Y60A showed nd, 5.47, 4.80 (controls 3 of 9).
The variant S52W G102K G103W showed 5.62, nd, 4.52 (controls 2 of 9).
The variant G50M S52I V64Y showed nd, nd, nd (controls 2 of 9).
The variant G26E F27W G100Y showed nd, nd, nd (controls 0 of 9).
The variant D30W H35A D107C showed 5.21, nd, nd (controls 3 of 9).
The variant G50L N54K Y108D showed 5.30, 5.54, 5.06 (controls 2 of 9).
The variant G26D I51F S57E showed 4.65, nd, 5.92 (controls 6 of 9).

Again, the first 6 entries without any signal:

changes	log10 Kd (nM) by replicate	empty controls
D31S G56W R101Q	nd, nd, nd	1 of 9
N54E G59I V64L	nd, nd, nd	0 of 9
N54D G56S A61Y	nd, nd, nd	0 of 9
G50L V64D K65G	nd, nd, nd	1 of 9
F29W A33R G59I	nd, nd, nd	2 of 9
G50M S52Y G103Y	nd, nd, nd	0 of 9

Values reported by Engelhart et al. 2022, doi:10.1038/s41597-022-01779-4 (FLAb copy).